Among the data in PubChem BioAssay AID1794808 (University of Kansas High Throughput Screening Laboratory, 2022) are inhibition values, retold here.

Each structure is given as a SMILES string. The entries are a selection whose mix differs from that of the whole data set. Some tests of the compounds listed are not included; inactive here does not mean inactive elsewhere. Activity calls are given as the source filed them. No stated cut-off is given here; in the data, active means inhibition above about 50%; inactive means the rest.

The subject of this test is Plasmodium falciparum apicoplast DNA polymerase (apPOL). Nature of the test: Pf-apPOL inhibitors, biochemical, fluorescence (AID 1794808). The settings on record: Recombinant Pf-apPOL, molecular beacon fluorescence, 1.5 h; at 10 µM; active compounds read high.
One may read the inhibition as the drop in the measured response relative to a control, in per cent. Consider `COc1ccc(OC)c(C=C(C#N)C#N)c1`, for which the inhibition was inactive: -6.6%.
